# Test results reported in ChEMBL document CHEMBL4261639, “Cell-Active Small Molecule Inhibitors of the DNA-Damage Repair Enzyme Poly(ADP-ribose) Glycohydrolase (PARG): Discovery and Optimization of Orally Bioavailable Quinazolinedione Sulfonamides” (J Med Chem, 2018).
# By UniProt entry, the sequences of proteins in these tests, tags left out. Where a name states a change or a piece, a line headed by the entry shows the natural chain unless it says otherwise.
# UniProt Q86W56: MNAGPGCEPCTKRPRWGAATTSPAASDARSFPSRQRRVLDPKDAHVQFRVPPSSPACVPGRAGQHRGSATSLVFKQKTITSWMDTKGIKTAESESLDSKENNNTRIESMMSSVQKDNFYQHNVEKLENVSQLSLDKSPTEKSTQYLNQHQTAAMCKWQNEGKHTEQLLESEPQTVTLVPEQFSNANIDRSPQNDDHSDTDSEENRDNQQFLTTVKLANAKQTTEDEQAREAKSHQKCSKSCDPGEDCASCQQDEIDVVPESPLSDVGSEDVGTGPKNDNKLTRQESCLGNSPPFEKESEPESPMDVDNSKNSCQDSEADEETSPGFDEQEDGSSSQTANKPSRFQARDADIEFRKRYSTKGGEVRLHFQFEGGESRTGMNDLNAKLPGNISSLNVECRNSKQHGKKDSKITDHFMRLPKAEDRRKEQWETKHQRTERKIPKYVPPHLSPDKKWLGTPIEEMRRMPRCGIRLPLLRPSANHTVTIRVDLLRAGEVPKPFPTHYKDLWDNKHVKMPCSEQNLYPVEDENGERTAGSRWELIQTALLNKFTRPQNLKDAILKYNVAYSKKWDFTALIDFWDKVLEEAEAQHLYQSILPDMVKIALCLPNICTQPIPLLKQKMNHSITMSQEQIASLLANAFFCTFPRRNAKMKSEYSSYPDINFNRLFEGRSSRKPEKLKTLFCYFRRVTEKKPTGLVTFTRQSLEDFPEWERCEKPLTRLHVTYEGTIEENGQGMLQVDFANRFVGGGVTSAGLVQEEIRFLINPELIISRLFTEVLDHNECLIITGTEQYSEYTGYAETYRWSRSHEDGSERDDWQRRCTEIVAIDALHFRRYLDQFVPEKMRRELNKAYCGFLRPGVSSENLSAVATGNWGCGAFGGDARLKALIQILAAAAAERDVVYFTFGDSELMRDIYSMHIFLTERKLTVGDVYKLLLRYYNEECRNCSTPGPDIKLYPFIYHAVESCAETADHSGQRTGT
# Target: Poly(ADP-ribose) glycohydrolase (Homo sapiens, UniProt Q86W56)
# Assay: Inhibition of human full length PARG using Bt-NAD ribosylated PARP1 substrate after 10 mins by TR-FRET assay
compound,measurement,value
O=C(Nc1ccc(Oc2ccc3ccccc3c2)c(Cl)c1)c1cc(Cl)cc(Cl)c1O,EC50,> 70000 nM
CCn1c(=O)n(Cc2cnn(C)c2)c(=O)c2cc(S(=O)(=O)NC3(C)CC3)ccc21,EC50,170 nM
